The target in data set [1] is T1, Papaya QC (Carica papaya, UniProt O81226). In words: Continuous spectrophotometric assay of QC substrate conversion (glutamate dehydrogenase coupled), papaya QC. The settings on record: for Ki* (for substrate inhibition) / Ki: n.i. = no inhibition; for Ki: substrate inhibition.
The target of data set [2] is T1, Papaya QC. In words: Qualitative substrate conversion by MALDI-TOF mass spectrometry, papaya QC.
Data set [3] addresses T1, Papaya QC. Put plainly: Fluorometric assay with pyroglutamyl aminopeptidase as auxiliary enzyme, papaya QC (incl. pH-dependence of Gln-βNA and Glu-βNA cyclization). The settings on record: for pKa-value from pH-dependence of conversion, first dissociating group / pKa-value from pH-dependence of conversion, second dissociating group: first-order rate-law conditions, 30° C.

By UniProt entry, the sequences of proteins in these tests, tags left out. Residues count along the entry.
UniProt O81226, 1-288: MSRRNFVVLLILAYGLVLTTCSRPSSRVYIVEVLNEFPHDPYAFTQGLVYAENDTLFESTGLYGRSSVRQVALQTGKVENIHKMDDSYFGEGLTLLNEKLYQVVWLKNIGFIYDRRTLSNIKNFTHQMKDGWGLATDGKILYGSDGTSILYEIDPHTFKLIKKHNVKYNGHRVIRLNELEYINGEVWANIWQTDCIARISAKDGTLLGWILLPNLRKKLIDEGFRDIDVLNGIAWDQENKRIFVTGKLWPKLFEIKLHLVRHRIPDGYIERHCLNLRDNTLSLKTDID

Where [4] appears, read: 0.05 M Tricine-NaOH, pH 8.0, 0.5 M KCl.
The mark [5] stands for this setting: Table 6, influence of substrate length.
[6] abbreviates: Table 1, physiological substrates.

Consider `CC(C)[C@H](NC(=O)[C@@H](N)CCC(N)=O)C(=O)O` [H-Gln-Val-OH], for which the “Ki* (for substrate inhibition)” value on Papaya QC [1] (Table 5) is listed as “n.i”.
With H-Gln(NMe)-Phe-Lys-Ala-Glu-NH2, the “substrate conversion (cyclization) by papaya QC” value at Papaya QC [2] is given as “converted into a pyroglutamyl residue”.
Broadly, the kcat/KM is the second-order rate constant that governs catalysis at low substrate concentration. In the case of H-Gln-βNA, the kcat/KM came out at 1.475e+06 ± 70000 M⁻¹ s⁻¹ at Papaya QC [1] (setting [4]); 1.356e+06 ± 50000 M⁻¹ s⁻¹ on Papaya QC [1] (0.05 M Tricine-NaOH, pH 8.08); 1.353e+06 ± 70000 M⁻¹ s⁻¹ at Papaya QC [1] (Table 5). Moreover, the pKa-value from pH-dependence of conversion, first dissociating group at Papaya QC [3] was 6.91. The molecule further had a pKa-value from pH-dependence of conversion, second dissociating group at Papaya QC [3] of 9.5.
For `C[C@H](NC(=O)[C@H](C)NC(=O)[C@@H](N)CCC(N)=O)C(N)=O` [H-Gln-Ala-Ala-NH2], at Papaya QC [1] (setting [5]), the kcat/KM was 507000 ± 12000 M⁻¹ s⁻¹.
As to H-Gln-AMC, the kcat/KM on Papaya QC [1] (Table 5) is 938000 ± 13000 M⁻¹ s⁻¹.
As for H-Gln-cyclo(Nε-Lys-Arg-Pro-Ala-Gly-Phe), the kcat/KM-value on Papaya QC [1] (text b244) came to 6200 ± 150 M⁻¹ s⁻¹.
For `CC(C)(C)OC(=O)C(N)CCC(N)=O` (centres unmarked), on Papaya QC [1] (Table 5), the specificity constant (kcat/KM) is 222000 ± 6000 M⁻¹ s⁻¹ and the “Ki* (for substrate inhibition)” value is listed as “n.i”.
Regarding `C[C@H](NC(=O)[C@@H](N)CCC(N)=O)C(=O)O` [H-Gln-Ala-OH], the kcat/KM on Papaya QC [1] (setting [4]) is 480000 ± 12000 M⁻¹ s⁻¹; at Papaya QC [1] (0.05 M Tricine-NaOH, pH 8.08), 509000 ± 19000 M⁻¹ s⁻¹; at Papaya QC [1] (Table 5) it was 442000 ± 16000 M⁻¹ s⁻¹. Also, the Ki entry was “n.i” at Papaya QC [1] (setting [4]) and “n.i” on Papaya QC [1] (0.05 M Tricine-NaOH, pH 8.08). The “Ki* (for substrate inhibition)” value on Papaya QC [1] (Table 5) is on record as “n.i”.
What is called Km is the concentration of substrate that gives half-maximal velocity. On to `CC(C)C[C@H](NC(=O)[C@H](CCCNC(=N)N)NC(=O)[C@H](CCCCN)NC(=O)[C@H](Cc1ccccc1)NC(=O)C[C@@H](N)CCC(N)=O)C(=O)N[C@@H](C)C(N)=O`, for which, at Papaya QC [1] (text b245), the Michaelis-Menten constant (Km) was found to be 3100 µM and the kcat/KM value is 1400 ± 100 M⁻¹ s⁻¹.
For the molecule `C[C@H](NC(=O)[C@@H](N)CCC(N)=O)C(N)=O` [H-Gln-Ala-NH2], at Papaya QC [1] (setting [5]), the specificity constant (kcat/KM) came to 296000 ± 15000 M⁻¹ s⁻¹.
For `NC(=O)CCC(N)C(N)=O` (centres unmarked), the Ki result on Papaya QC [1] (setting [4]) was “n.i”; on Papaya QC [1] (0.05 M Tricine-NaOH, pH 8.08), “n.i”. The “Ki* (for substrate inhibition)” value at Papaya QC [1] (Table 5) was “n.i”.
`COC(=O)CC[C@H](N)C(=O)N[C@@H](Cc1ccccc1)C(=O)N[C@@H](CCCCN)C(=O)N[C@@H](CCCNC(=N)N)C(=O)N[C@@H](CC(C)C)C(=O)N[C@@H](C)C(N)=O` [H-Glu(OMe)-Phe-Lys-Arg-Leu-Ala-NH2]: at Papaya QC [3] (H-Gln-AMC as substrate), the “inhibition of papaya QC by the peptide” value is recorded as “not inhibited”.
Regarding H-Gln-OH, on Papaya QC [1] (Table 5), the kcat/KM turned out to be 230 ± 100 M⁻¹ s⁻¹.
As for `C[C@H](NC(=O)[C@H](C)NC(=O)[C@H](C)NC(=O)[C@H](C)NC(=O)[C@@H](N)CCC(N)=O)C(N)=O`, the kcat/KM at Papaya QC [1] (setting [5]) worked out at 379000 ± 10000 M⁻¹ s⁻¹.
Turning to H-Glu-βNA, on Papaya QC [3], the pKa-value from pH-dependence of conversion, first dissociating group came to 4.6 and the pKa-value from pH-dependence of conversion, second dissociating group was determined as 7.55.
As to `NC(=O)CC[C@H](N)C(=O)N[C@@H](CCC(=O)O)C(=O)N1CCC[C@H]1C(N)=O` [[Gln^1]-FPP], on Papaya QC [1] (setting [6]), the Km was 232 µM and the specificity constant (kcat/KM) was 140000 ± 4000 M⁻¹ s⁻¹.
On to `CC(C)C[C@H](NC(=O)[C@H](CCCNC(=N)N)NC(=O)[C@H](CCCCNC(=O)[C@@H](N)CCC(N)=O)NC(=O)[C@@H](N)CCC(N)=O)C(=O)N[C@@H](C)C(N)=O` [H-Gln-Lys(Gln)-Arg-Leu-Ala-NH2], for which the “substrate conversion (cyclization) by papaya QC” value on Papaya QC [2] was “converted”.
`NC(=O)CC[C@H](N)C(=O)N[C@@H](Cc1ccc(O)cc1)C(=O)O` [H-Gln-Tyr-OH]: at Papaya QC [1] (Table 5), the “Ki* (for substrate inhibition)” value is given as “n.i”.
As to `NC(=O)CC[C@H](NC(=O)[C@@H](N)CCC(N)=O)C(=O)O` [H-Gln-Gln-OH], at Papaya QC [1] (Table 5), the specificity constant (kcat/KM) came to 982000 ± 51000 M⁻¹ s⁻¹ and the “Ki* (for substrate inhibition)” value was “n.i”.
Take `CSCC[C@H](NC(=O)[C@H](Cc1c[nH]c2ccccc12)NC(=O)CNC(=O)[C@H](Cc1ccc(O)cc1)NC(=O)[C@H](C)NC(=O)[C@H](CCC(=O)O)NC(=O)[C@H](CCC(=O)O)NC(=O)[C@H](CCC(=O)O)NC(=O)[C@H](CCC(=O)O)NC(=O)[C@H](CCC(=O)O)NC(=O)[C@H](CC(C)C)NC(=O)[C@H](Cc1c[nH]c2ccccc12)NC(=O)[C@@H]1CCCN1C(=O)CNC(=O)[C@@H](N)CCC(N)=O)C(=O)N[C@@H](CC(=O)O)C(=O)N[C@@H](Cc1ccccc1)C(N)=O`: the Km on Papaya QC [1] (setting [6]) was 34 µM.
Regarding `NC(=O)CC[C@H](N)C(=O)NCC(=O)O`, the “Ki* (for substrate inhibition)” value on Papaya QC [1] (Table 5) was “n.i”.
As for `C[C@H](NC(=O)[C@H](C)NC(=O)[C@H](CO)NC(=O)[C@H](C)NC(=O)[C@H](C)NC(=O)[C@@H](N)CCC(N)=O)C(N)=O`, the kcat/KM at Papaya QC [1] (setting [5]) stood at 363000 ± 5000 M⁻¹ s⁻¹.
Consider `NC(=O)CC[C@H](N)C(=O)N[C@@H](CCC(=O)O)C(=O)O` [H-Gln-Glu-OH], for which the kcat/KM on Papaya QC [1] (setting [4]) was found to be 472000 ± 12000 M⁻¹ s⁻¹; on Papaya QC [1] (0.05 M Tricine-NaOH, pH 8.08), 459000 ± 18000 M⁻¹ s⁻¹; on Papaya QC [1] (Table 5) it was 475000 ± 17000 M⁻¹ s⁻¹. The Ki entry is listed as “n.i” on Papaya QC [1] (setting [4]) and “n.i” at Papaya QC [1] (0.05 M Tricine-NaOH, pH 8.08). Moreover, the “Ki* (for substrate inhibition)” value at Papaya QC [1] (Table 5) is “n.i”.

For the origin of these results see US7381537B2, “Use of inhibitors of glutaminyl cyclases for treatment and prevention of disease” (Probiodrug AG, priority 2003, dated 2008).
